Laboratory results reported in US9662329B2, “Use of survivin antagonists in polyomavirus-related disease” (University of Pittsburgh—Of the Commonwealth System of …, priority 2012, dated 2017).

Tested on: MCC cell lines
Experimental: Serial drug dilutions from 10^−4 M to 10^−9 M were used on MCC and non-MCC cell lines. Cells were seeded into 384-well plates at 6000 cells in 50 μl of medium per well. After 24 hours, 25 μl of 3× drugs were added at increasing concentration to each well. Cell viability was then measured using Cell Titer Glo (Promega) kit following manufacturer's instructions as described previously. Each drug concentration was tested in triplicate for each cell line and experiments were repeated twice. EC50 doses for the drugs were calculated using a four parameter logistic equation (GraphPad Prism).

## CC(C)C[C@H](NC(=O)[C@H](Cc1ccccc1)NC(=O)c1cnccn1)B(O)O [Bortezomib]
  selectivity of activity for MCV-positive cells: not selective for MCV-positive cells
